# Tested on: cerebellar granule neurons (CGNs)
# Test: serum deprivation/KCl reduction-induced degeneration
# Type: cell-based, mouse
# Procedure: Kinase inhibitors (inhibitors of GSK3, JNK, EGFR, p38, and CaMKK) were tested for their capacity to protect cultured cerebellar granule neurons (CGNs) following serum deprivation/KCl reduction. Briefly, CGNs isolated from P7 mouse brain were cultured on PDL- and laminin-coated 96-well tissue culture dishes in medium containing serum and potassium (Basal Medium Eagles including 29 mM KCl and 10% FBS) at 37° C. After 24 hours in culture, cells were switched to “deprivation” medium (Basal Medium Eagles including 5 mM KCl), alone or in combination with various small molecule inhibitors as shown in Table 8. After a further 24 hours in culture, the neurons were fixed with 4% paraformaldehyde and stained with a neuronal marker (anti-class III β-Tubulin, Covance). Image acquisition was performed using the ImageXpress automated imaging system (Molecular Devices).
compound,measurement,value
O=C1NC(=O)C(c2ccccc2[N+](=O)[O-])=C1Nc1ccc(O)c(Cl)c1 [SB 415286],protection of cerebellar granule neurons from serum deprivation/KCl reduction,protect cerebellar granule neurons from serum deprivation/KCl reduction
